OPERA 2.9 data: water solubility values

Values as listed in the OPERA 2.9 repository of K. Mansouri.

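The OPERA project collected these measurements from public sources as training and test data for property models. One number stands for a compound and property, with no spread given. Method, purity and exact conditions of the single measurements are not given. The measured form (salt, isomer or mixture) is not always the one drawn. Some upstream entries may be estimates or bounds without being marked so.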

Solubility in water is on a log10 molar scale (set defined at 25 °C). "n/a" marks a cell with nothing listed here.

structure (SMILES),name,log S (log10 mol/L)
O=C(O)C1=C(CSc2nnnn2CS(=O)(=O)O)CS[C@@H]2[C@H](NC(=O)[C@H](O)c3ccccc3)C(=O)N12,Cefonicid,-2.783
CC1(C)C2CC3C(C2)C31C(=O)O,"7,7-Dimethyltricyclo[2.2.1.02,6]heptane-1-carboxylic acid",-2.942
CC=C(C(=CC)c1ccc(O)cc1)c1ccc(O)cc1,Dienestrol,-4.643
CC(=O)Nc1cccc(C(C)=O)c1,3'-Acetamidoacetophenone,-1.623
COC(=O)CC(OC)c1ccc(OC)cc1 (stereo not drawn),"Methyl beta,4-dimethoxybenzenepropanoate",-2.343
Cc1cc(Sc2cc(C)cc(C(C)(C)C)c2O)c(O)c(C(C)(C)C)c1,"6,6'-Di-tert-butyl-2,2'-thiodi-p-cresol",-7.651
CCN(CCC(=O)OC)c1ccc(N=Nc2snc3ccc([N+](=O)[O-])cc23)cc1,C.I. Disperse Blue 148,-7.315
CN(Cc1ccc(C(C)(C)C)cc1)Cc1cccc2ccccc12,Butenafine,-6.623
Cc1ccc(C(=O)c2cc(O)c(O)c([N+](=O)[O-])c2)cc1,Tolcapone,-3.681
O=c1[nH]c2ccccc2c(=O)n1CCO,"3-(2-Hydroxyethyl)-1H,3H-quinazoline-2,4-dione",-3.113
O[C@@H]1[C@H](Oc2ccccc2)OC[C@@H](O)[C@H]1O,Phenyl beta-D-arabinopyranoside,-1.656
Cc1ccc(C(=O)CC(=O)C(F)(F)F)cc1,"4,4,4-Trifluoro-1-(4-methylphenyl)butane-1,3-dione",-2.641
C[C@H](CCC(=O)O)[C@H]1CC[C@H]2[C@@H]3C(=O)C[C@H](C(=O)O)[C@](C)(CCC(=O)O)[C@H]3CC(=O)[C@]12C,Oxododecahydro-1H-cyclopenta[a]naphthalene-7-carboxylic acid,-2.809
O=C(O)[C@@H]1C[C@@H](O)CN1,(4R)-4-hydroxy-L-proline,0.439
Nc1cc(S(=O)(=O)O)c2ccccc2c1O,"1-Naphthalenesulfonic acid, 3-amino-4-hydroxy-",-2.744
O=[N+]([O-])c1ccc2[nH]cnc2c1,6-Nitrobenzimidazole,-2.815
O=C(O)C1CCCCN1 (stereo not drawn),2-Piperidinecarboxylic acid,0.386
CCO[Si](=O)O,"Silicic acid, ethyl ester",-3.804
COc1cc(C#N)ccc1C=O,4-Formyl-3-methoxybenzonitrile,-2.719
CCOC(=O)[C@H](CCc1ccccc1)N[C@@H](C)C(=O)N1CC2(C[C@H]1C(=O)O)SCCS2,Spirapril,-4.202
CC(C)Nc1cccnc1N1CCN(C(=O)c2cc3cc(NS(C)(=O)=O)ccc3[nH]2)CC1,Delavirdine,-3.725
Cc1ccc(Nc2ccc3c4c(cc(=O)n3C)-c3ccccc3C(=O)c24)cc1,n/a,-8.689
C=CC(=C)CCCC(C)(C)O,2-Methyl-6-methylene-7-octen-2-ol,-2.772
CC(=O)C(N=Nc1cccc(OCCOc2ccccc2N=NC(C(C)=O)C(=O)Nc2ccc3[nH]c(=O)[nH]c3c2)c1)C(=O)Nc1ccc2[nH]c(=O)[nH]c2c1 (stereo not drawn),C.I. Pigment Yellow 180,-7.634
Cc1ccncc1C,"3,4-Dimethylpyridine",0.36
O=c1c2cccc3cccc(c32)c2nc3cccc4cccc(c43)n12,"14H-Benz[4,5]isoquino[2,1-a]perimidin-14-one",-7.464
O=C(Nc1ccc(NC(=O)c2cc3ccccc3c(N=Nc3cc(Cl)ccc3Cl)c2O)c(Cl)c1)c1cc2ccccc2c(N=Nc2cc(Cl)ccc2Cl)c1O,n/a,-7.869
O=S1(=O)c2ccccc2S(=O)(=O)c2cc(O)ccc21,beta-Hydroxythianthrenedisulfone,0.416
C=CC(=O)OCCCCCCc1ccc(OC(=O)[C@H]2CC[C@H](C(=O)Oc3ccc(CCCCCCOC(=O)C=C)cc3)CC2)cc1,n/a,-7.158
Clc1cc(Cl)c(Oc2cccc(Cl)c2Cl)cc1Cl,"2,2',3',4,5-Pentachlorodiphenylether",-7.48
C[C@@H]1CN(c2c(F)c(N)c3c(=O)c(C(=O)O)cn(C4CC4)c3c2F)C[C@H](C)N1,Sparfloxacin,-3.541
CC(C)=CCCC(C)C=O (stereo not drawn),"2,6-Dimethylhept-5-enal",-2.448
C=C[C@H]1CC[C@H]([C@H]2CC[C@H](CCC)CC2)CC1,n/a,-7.069
CCC[C@H]1CC[C@H](c2cc(C(C)(C)C)c(O)c(C(C)(C)C)c2)CC1,n/a,-6.693
c1ncc2cn[nH]c2n1,"Pyrazolo(3,4-d)pyrimidine",-1.381
CCCCCCCNC(=O)[C@H](O)[C@@H](O)[C@H](O)[C@H](O)CO (stereo in doubt),N-Heptyl D-gluconamide,-1.923
CC(C)(C)C(C)(C)O,"2-Butanol, 2,3,3-trimethyl- (8CI)(9CI)",-0.72
CCC[C@H]1CC[C@H]([C@H]2CC[C@H](C=O)CC2)CC1,"4'-Propyl-1,1'-bi(cyclohexyl)-4-carbaldehyde",-6.897
O=C(O)c1ccccc1I,"Benzoic acid, 2-iodo-",-2.73
NS(=O)(=O)c1cc(Cl)c(Cl)c(S(N)(=O)=O)c1,Dichlorphenamide,-2.885
IC[C@H]1CC[C@H](CI)CC1,"trans-1,4-Bis(iodomethyl)cyclohexane",-5.748
CCOc1ccc(NC(=O)NN)cc1,N-(4-Ethoxyphenyl)hydrazinecarboxamide,-1.647
C=C(C)c1cccc(C(=C)C)c1,m-Bis(1-methylvinyl)benzene,-4.451
CCCCC/C=C\C=C\C(=O)OCC,"Ethyl (2E,4Z)-deca-2,4-dienoate",-4.44
CCCC1CCC(c2ccc(-c3ccc(CC)cc3)cc2)CC1 (stereo not drawn),n/a,-7.185
CCOC(=O)OCCOc1cc(O)c2c(c1N)C(=O)c1ccccc1C2=O,n/a,-9.22
O=P(O)(Oc1ccc2ccccc2c1)Oc1ccc2ccccc2c1,Dinaphthalen-2-yl hydrogen phosphate,-2.942
CCCCOCC(C)OC(=O)COc1nc(F)c(Cl)c(N)c1Cl (stereo not drawn),n/a,-4.467
CCCC(N)=O,Butanamide,0.272
Nc1ccc(Cl)c(Cl)c1Cl,"2,3,4-Trichloroaniline",-3.47
COc1ccc(NC(=O)c2cc3ccccc3c(/N=N/c3cc(C(=O)Nc4ccc(S(=O)(=O)[O-])cc4)ccc3C)c2O)cc1.COc1ccc(NC(=O)c2cc3ccccc3c(/N=N/c3cc(C(=O)Nc4ccc(S(=O)(=O)[O-])cc4)ccc3C)c2O)cc1.[Ca+2],n/a,-7.051
CCN(CC[N+](C)(C)C)c1ccc(/N=N/c2ccc([N+](=O)[O-])cc2Cl)cc1.[Cl-],C.I. Basic Red 18,-3.039

5 of these entries, quoted again:

{"smiles": "CC(C)=CCCC(C)C=O", "stereo": "stereo not drawn", "name": "2,6-Dimethylhept-5-enal", "log S (log10 mol/L)": "-2.448"}
{"smiles": "C=CC(=C)CCCC(C)(C)O", "name": "2-Methyl-6-methylene-7-octen-2-ol", "log S (log10 mol/L)": "-2.772"}
{"smiles": "CCCC1CCC(c2ccc(-c3ccc(CC)cc3)cc2)CC1", "stereo": "stereo not drawn", "log S (log10 mol/L)": "-7.185"}
{"smiles": "O=P(O)(Oc1ccc2ccccc2c1)Oc1ccc2ccccc2c1", "name": "Dinaphthalen-2-yl hydrogen phosphate", "log S (log10 mol/L)": "-2.942"}
{"smiles": "CCN(CCC(=O)OC)c1ccc(N=Nc2snc3ccc([N+](=O)[O-])cc23)cc1", "name": "C.I. Disperse Blue 148", "log S (log10 mol/L)": "-7.315"}